Measured values taken from US12503510B2, “Small shedding blocking agents” (BIOND BIOLOGICS LTD., priority 2019, dated 2025).

System: human PBMCs
Assay: CMV stimulation of PBMCs with ectopic recombinant human CD28 or CTLA-4, cytokine ELISA/multiplex
Type: cell-based
Conditions: CMV 0.5 μg/mL

## soluble CTLA-4: recombinant human soluble CTLA-4, mimicking Abatacept
  cytokine secretion profile compared with soluble CD28: over-all similar impact on the immune system in terms of cytokine secretion profiles
